Reference: patent publication US20070191462A1, “Combination of A 5-HT(1) Receptor Agonist and an Alpha-2-Delta Ligand for the Treatment of Migraine” (Pfizer Limited, priority 2004, published 2007)

Tested on: 2nd sensory neuron in the trigeminal nucleus caudalis (TNC)
Test: rat model of migraine: sensitization induced by inflammatory soup applied to the dura, monitored by electrophysiology in the TNC
Type: in vivo
Settings: pregabalin 30 mg/kg given 3 hours after inflammatory soup; 4.5 hour time point; not consistent among animals, large variability

With `CC(C)C[C@H](CN)CC(=O)O` [pregabalin, (S)-(+)-4-amino-3-(2-methylpropyl)butanoic acid] the “reversal of sensitization of responses to sensory stimuli (brush and pin)” value was “moderately reversed the sensitization”.
